{"sequences": {"note": "Protein sequences, listed by entry. Tags and fused reporters are not part of them. Lines headed by an entry give the natural chain unless they say otherwise; changes in a name come on top.", "UniProt P11766": "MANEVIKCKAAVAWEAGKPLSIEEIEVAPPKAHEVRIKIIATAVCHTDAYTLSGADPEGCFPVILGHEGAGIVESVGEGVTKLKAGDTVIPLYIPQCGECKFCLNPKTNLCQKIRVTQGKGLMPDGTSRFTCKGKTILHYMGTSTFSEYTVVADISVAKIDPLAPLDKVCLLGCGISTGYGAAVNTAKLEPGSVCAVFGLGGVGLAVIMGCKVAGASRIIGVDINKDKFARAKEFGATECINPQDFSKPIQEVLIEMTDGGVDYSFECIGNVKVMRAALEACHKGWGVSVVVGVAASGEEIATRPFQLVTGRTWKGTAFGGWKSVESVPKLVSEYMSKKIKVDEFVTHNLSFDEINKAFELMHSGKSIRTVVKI"}, "source": "ChEMBL document CHEMBL3639135", "about": "“Dihydropyrimidin-2(1H)-one compounds as S-nitrosoglutathione reductase inhibitors” (2014)"}
{"biological_target": "Alcohol dehydrogenase class-3 (Homo sapiens, UniProt P11766)", "units": {"IC50": "nM"}}
{"smiles": "CCOc1cc([C@@H]2NC(=O)N=C(c3ccccc3)C2c2ccsc2)cc([N+](=O)[O-])c1O", "note": "(stereo partly drawn)", "IC50": 18}
{"smiles": "CCOc1cc(C2NC(=O)N=C(c3ccccc3)C2c2ccccc2)cc([N+](=O)[O-])c1O", "note": "(stereo not drawn)", "IC50": 29}
{"smiles": "CCOc1cc([C@H]2NC(=O)N=C(c3ccccc3)C2c2ccccc2)cc([N+](=O)[O-])c1O", "note": "(stereo partly drawn)", "IC50": 19700}
{"smiles": "CCOc1cc([C@H]2NC(=O)N=C(c3ccccc3)C2c2ccsc2)cc([N+](=O)[O-])c1O", "note": "(stereo partly drawn)", "IC50": 1820}
{"smiles": "CCOc1cc([C@@H]2NC(=O)N=C(c3ccccc3)C2c2ccccc2)cc([N+](=O)[O-])c1O", "note": "(stereo partly drawn)", "IC50": 11}
{"smiles": "CCOc1cc(C2=NC(=O)NC(c3ccn(C)n3)C2c2ccsc2)cc([N+](=O)[O-])c1O", "note": "(stereo not drawn)", "IC50": 35}
{"smiles": "CCOc1cc(C2=NC(=O)NC(c3cccnc3)C2c2ccsc2)cc([N+](=O)[O-])c1O", "note": "(stereo not drawn)", "IC50": 1900}
{"smiles": "CCOc1cc(C2NC(=O)N=C(c3ccccc3)C2c2ccsc2)cc([N+](=O)[O-])c1O", "note": "(stereo not drawn)", "IC50": 19}
